Molecules are shown by their SMILES.

We go through 21 compounds from ChEMBL document CHEMBL4321856.

The first assay in a line: Selectivity index, ratio of Ki for displacement of [3H]DPDPE from rat DOR expressed in CHO cell membranes incubated for 30 mins by liquid scintillation counting to Ki for displacement of [3H]U69593 from human KOR expressed in CHO cell membranes incubated for 30 mins by liquid scintillation counting.
Regarding `COc1ccc2c3c1O[C@H]1[C@@]4(OC)CC[C@@]5(C[C@@H]4c4ccc(/N=N/c6ccc(O)cc6)cc4)[C@@H](C2)N(CC2CC2)CC[C@]315`, the Ratio Ki is more than 3.1. Regarding `COc1ccc2c3c1O[C@H]1[C@@]4(OC)CC[C@@]5(C[C@@H]4c4ccc(NCCN(C)C)cc4)[C@@H](C2)N(CC2CC2)CC[C@]315`, the Ratio Ki stood at 10.6.

Take `CNc1ccc([C@H]2C[C@@]34CC[C@]2(OC)[C@@H]2Oc5c(OC)ccc6c5[C@@]23CCN(CC2CC2)[C@@H]4C6)cc1`: the Ratio Ki turned out to be 4.7. On to `CCCNc1ccc([C@H]2C[C@@]34CC[C@]2(OC)[C@@H]2Oc5c(OC)ccc6c5[C@@]23CCN(CC2CC2)[C@@H]4C6)cc1`, for which the Ratio Ki came to 6.8. `COc1ccc2c3c1O[C@H]1[C@@]4(OC)CC[C@@]5(C[C@@H]4c4ccc(NCC(N)=O)cc4)[C@@H](C2)N(CC2CC2)CC[C@]315`: the Ratio Ki was determined as 3.6.

Consider `CCOC(=O)CCNc1ccc([C@H]2C[C@@]34CC[C@]2(OC)[C@@H]2Oc5c(OC)ccc6c5[C@@]23CCN(CC2CC2)[C@@H]4C6)cc1`, for which the Ratio Ki was determined as 0.9. Consider `COc1ccc2c3c1O[C@H]1[C@@]4(OC)CC[C@@]5(C[C@@H]4c4ccc(NC(=O)Cc6ccccc6)cc4)[C@@H](C2)N(CC2CC2)CC[C@]315`, for which the Ratio Ki turned out to be 6.2. On to `COc1ccc2c3c1O[C@H]1[C@@]4(OC)CC[C@@]5(C[C@@H]4c4ccc(NC(=O)c6ccccc6)cc4)[C@@H](C2)N(CC2CC2)CC[C@]315`, for which the Ratio Ki was found to be 284. On the same count and under the same terms, with `COc1ccc2c3c1O[C@H]1[C@@]4(OC)CC[C@@]5(C[C@@H]4c4ccc(NCCCN(C)C)cc4)[C@@H](C2)N(CC2CC2)CC[C@]315` the figure was 20.5; with `COc1ccc2c3c1O[C@H]1[C@@]4(OC)CC[C@@]5(C[C@@H]4c4ccc(N6CCN(CC7CC7)CC6)cc4)[C@@H](C2)N(CC2CC2)CC[C@]315`, 3.6. Consider `COc1ccc2c3c1O[C@H]1[C@@]4(OC)CC[C@@]5(C[C@@H]4c4ccc(N6CCN(C(=O)c7ccccc7)CC6)cc4)[C@@H](C2)N(CC2CC2)CC[C@]315`, for which the Ratio Ki turned out to be 0.5. Same read-out and setting: with `COc1ccc2c3c1O[C@H]1[C@@]4(OC)CC[C@@]5(C[C@@H]4c4ccc(N6CCCC6)cc4)[C@@H](C2)N(CC2CC2)CC[C@]315` the figure was 3.1; with `COc1ccc2c3c1O[C@H]1[C@@]4(OC)CC[C@@]5(C[C@@H]4c4ccc(NC(C)=O)cc4)[C@@H](C2)N(CC2CC2)CC[C@]315`, 27.7; with `COc1ccc2c3c1O[C@H]1[C@@]4(OC)CC[C@@]5(C[C@@H]4c4ccc(N6CCN(S(=O)(=O)c7ccc(C)cc7)CC6)cc4)[C@@H](C2)N(CC2CC2)CC[C@]315`, more than 3.2. For `COc1ccc2c3c1O[C@H]1[C@@]4(OC)CC[C@@]5(C[C@@H]4c4ccc(N6CCN(C(C)=O)CC6)cc4)[C@@H](C2)N(CC2CC2)CC[C@]315`, the Ratio Ki is 0.2.

For the compound `COc1ccc2c3c1O[C@H]1[C@@]4(OC)CC[C@@]5(C[C@@H]4c4ccc(N)cc4)[C@@H](C2)N(CC2CC2)CC[C@]315`, the Ratio Ki worked out at 5.2. Regarding `CCNc1ccc([C@H]2C[C@@]34CC[C@]2(OC)[C@@H]2Oc5c(OC)ccc6c5[C@@]23CCN(CC2CC2)[C@@H]4C6)cc1`, the Ratio Ki is 2.5. As for `COc1ccc2c3c1O[C@H]1[C@@]4(OC)CC[C@@]5(C[C@@H]4c4ccc(N6CCNCC6)cc4)[C@@H](C2)N(CC2CC2)CC[C@]315`, the Ratio Ki came to 10.3.

As for `COc1ccc2c3c1O[C@H]1[C@@]4(OC)CC[C@@]5(C[C@@H]4c4ccc(NCC6CC6)cc4)[C@@H](C2)N(CC2CC2)CC[C@]315`, the Ratio Ki was found to be 4.5.

Take `COc1ccc2c3c1O[C@H]1[C@@]4(OC)CC[C@@]5(C[C@@H]4c4ccc(NC=O)cc4)[C@@H](C2)N(CC2CC2)CC[C@]315`: the Ratio Ki stood at 30.8. As for `COc1ccc2c3c1O[C@H]1[C@@]4(OC)CC[C@@]5(C[C@@H]4c4ccc(N6CCCCC6)cc4)[C@@H](C2)N(CC2CC2)CC[C@]315`, the Ratio Ki turned out to be 25.5.

A further assay can be described thus: Selectivity index, ratio of EC50 for agonist activity at rat DOR expressed in CHO cell membranes assessed as stimulation of [35S]GTPgammaS binding by liquid scintillation counting to EC50 for agonist activity at human KOR expressed in CHO cell membranes assessed as stimulation of [35S]GTPgammaS …. (In general: GTPγS resists hydrolysis and so accumulates on activated G proteins.)
On to `COc1ccc2c3c1O[C@H]1[C@@]4(OC)CC[C@@]5(C[C@@H]4c4ccc(NC(=O)c6ccccc6)cc4)[C@@H](C2)N(CC2CC2)CC[C@]315`, for which the Ratio EC50 is more than 300. Same read-out and setting: with `COc1ccc2c3c1O[C@H]1[C@@]4(OC)CC[C@@]5(C[C@@H]4c4ccc(N)cc4)[C@@H](C2)N(CC2CC2)CC[C@]315` the figure was 1.87.
